Assay results taken from PubChem BioAssay AID651710 (Broad Institute, 2012).
The entries are a selection whose mix differs from that of the whole data set. Calls of active or inactive are those of the source.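 The calls were made as follows: active = every replicate showing at least 50% inhibition; inconclusive = mean inhibition at least 50% but not in every replicate; inactive = the rest.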

Amino acid sequences for entries named in this document (tags omitted). A change or cut given only in a name is not applied to a line headed by its entry.
UniProt P43351: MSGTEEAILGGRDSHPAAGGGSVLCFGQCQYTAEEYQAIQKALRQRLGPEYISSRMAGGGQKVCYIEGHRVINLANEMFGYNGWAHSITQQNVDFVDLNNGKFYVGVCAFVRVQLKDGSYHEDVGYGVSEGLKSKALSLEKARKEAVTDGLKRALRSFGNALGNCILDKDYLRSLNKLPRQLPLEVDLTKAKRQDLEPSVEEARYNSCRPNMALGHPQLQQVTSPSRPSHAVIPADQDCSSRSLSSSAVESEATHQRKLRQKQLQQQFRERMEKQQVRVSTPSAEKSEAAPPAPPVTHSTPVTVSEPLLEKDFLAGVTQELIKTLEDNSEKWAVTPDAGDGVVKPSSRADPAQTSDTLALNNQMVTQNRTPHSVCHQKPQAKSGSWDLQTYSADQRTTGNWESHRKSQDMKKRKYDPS

target: DNA repair protein RAD52 homolog (Homo sapiens) (UniProt P43351); assay: blockers of RAD52 strand annealing activity – biochemical, FRET, single point, set 2, primary screen (AID 651710); settings: recombinant RAD52 DNA annealing, FRET fluorescence; at 18.7 µM; stronger effect = higher value

| Structure (SMILES) | inhibition |
| --- | --- |
| O=C(Nc1cc([As](=O)(O)O)ccc1O)c1ccccc1 | inactive: 16.8% |
| O=P1(N(CCCl)CCCl)OCCCS1 (configuration not stated) | inactive: -2.46% |
| O=C(O)CNc1ccc([As](=O)(O)O)cc1 | inactive: 0.153% |
| COC(=O)C1(C)COP(=O)(Nc2ccccc2)OC1 (configuration not stated) | inactive: -2.5% |
| O=[N+]([O-])c1cccc(NC2=NCC(CBr)S2)c1 (configuration not stated) | inactive: -9.39% |
| O=[N+]([O-])c1ncn(CCn2ncnc2[N+](=O)[O-])n1 | inactive: -8.76% |
| CC(C)(C)C(=O)NC(Sc1ccncn1)C(Cl)(Cl)Cl (configuration not stated) | inactive: -1.02% |
| O=[N+]([O-])c1cc([N+](=O)[O-])c(CCNc2ccccc2)c([N+](=O)[O-])c1 | inactive: -4.78% |
| Cc1ccc(NP(=O)(Oc2ccccc2)Oc2ccccc2)nc1 | inactive: -11.4% |
| COc1ccc(C2=NCC(CBr)S2)cc1 (configuration not stated) | inactive: 9.94% |
| c1cc(-c2nn[nH]n2)ccc1-c1nn[nH]n1 | inactive: -13.5% |
| CC(C)c1nc(Nc2ccccc2)n(P(=O)(N(C)C)N(C)C)n1 | inactive: 2.77% |
| CC(C)=N/N=C(\N)N[N+](=O)[O-] | inactive: 1.01% |
| CCN(/C(=N/P(=O)(N1CCOCC1)N1CCOCC1)N1CCOCC1)c1ccc(OC)cc1 | inactive: -2.27% |
| C[N+]1=C2C=CC=CC=C2SC12C([N+](=O)[O-])=CC([N+](=O)[O-])=C[C-]2[N+](=O)[O-] (configuration not stated) | inactive: -15% |
| Nc1ccc([As](=O)(O)c2ccc(N)cc2)cc1 | inactive: -10.5% |
| Clc1ccc(Cl)c(NC2=NCC(CBr)S2)c1 (configuration not stated) | inactive: -16.2% |
| Cc1ccc(OP(=O)(Nc2nccs2)Oc2ccc(C)cc2)cc1 | inactive: -12.4% |
| COc1ccccc1OP(=O)(Nc1ccc(C)cn1)Oc1ccccc1OC | inactive: -3.99% |
| Cc1ccc(N/C(=N/P(=O)(N2CCOCC2)N2CCOCC2)N2CCOCC2)cc1 | inactive: -5.94% |
| CN(C(=O)Cc1ccc(Cl)c(Cl)c1)[C@H]1CCCC[C@H]1N1CCCC1 | inactive: 8.65% |
| NC(=O)c1cc([N+](=O)[O-])cc([N+](=O)[O-])c1N | inactive: -32.2% |
| O=C(NC(Sc1ccncn1)C(Cl)(Cl)Cl)c1ccccc1 (configuration not stated) | inactive: -4.89% |
| Nc1cc(N)c2nonc2c1[N+](=O)[O-] | inactive: -30.7% |
| CC(C)CC(=O)NC(Sc1ccc(Cl)cc1)C(Cl)(Cl)Cl (configuration not stated) | inactive: -6.42% |
| CCn1c(=O)n(C2CCN(CC3CCCCCCC3)C[C@H]2CO)c2ccccc21 (some centres not stated) | inactive: 8.2% |
| Cc1ccc(NP(=O)(Oc2ccccc2F)Oc2ccccc2F)nc1 | inactive: -7.37% |
